In patent publication US20190054041A1, “USE OF NOOTKATONE” (INSTITUTE OF TROPICAL BIOSCIENCE AND BIOTECHOLOGY CHINESE …, priority 2016, published 2019):

System: ICR mice
Conditions: intragastric once a day for 14 days, nootkatone 1-2 mg/Kg, Prozac 20 mg/Kg

CNCCC(Oc1ccc(C(F)(F)F)cc1)c1ccccc1 (stereo not shown) [Prozac, fluoxetine, reference compound]
Toxicity judged from weight and fur appearance of mice: neither nootkatone nor the positive drug Prozac has toxicity
